Literature values as cited in patent US20130344157A1, “ENHANCEMENT OF THE EFFICACY OF THERAPEUTIC PROTEINS” (North-West University, priority 2007, published 2013).

Settings: peroral insulin; cited from earlier work

In the case of insulin, the “orally administered dose absorbed from the GI tract” value is given as “less than 0.5%” and the “orally administered dose reaching the central bloodstream intact” value is given as “less than 0.1%”.
